Literature values, collected in US10213397B2, “Microtubule polymerization modulators for treating LMNA-related dilated cardiomyopathy” (priority 2016, dated 2019).

Settings: reported adverse reactions; cited from earlier work

In the case of `COc1cc2c(c(OC)c1OC)-c1ccc(OC)c(=O)cc1[C@@H](NC(C)=O)CC2` [colchicine], the “frequency of diarrhea (gastrointestinal, very common)” value is given as 23%, the “frequency of nonthrombocytopenic purpura rashes, rashes, urticaria, dermatitis (dermatologic, very rare)” value is given as “less than 0.01%” and the “frequency of peripheral neuritis, sensory motor neuropathy (nervous system, rare)” value is given as “less than 0.1%”.
